Results on one molecule are retold here after patent US20250025442A1, “BCAA-Lowering Compounds for Prevention and/or Treatment of Alzheimer's Disease and Related Disorders” (Texas Tech University System, priority 2020, published 2025).

The subject of data set [1] is 5xFAD mice. The experiment in a line: BT2 daily ip injection for one month in 5xFAD mice. The following applies: BT2 40 mg/kg ip daily, WT and 5xFAD mice. The text has this:
These transgenic mice develop amyloid plaques and neuroinflammation at as early as 1.5-2 months of age^7, thus allowing the inventors to investigate the role of BCAAs in AD-related brain pathology when they are young. […] Next, the inventors examined amyloid and Tau pathology in the cortex.

The conditions of data set [2]: in vitro; cited from earlier work.
The conditions of data set [3]: injected ip in CD-1 mice; cited from earlier work.

Where two headings read alike, the source gives them in different places.

`O=C(O)c1sc2cc(Cl)ccc2c1Cl` [BT2, 3,6-dichlorobenzo[b]thiophene-2-carboxylic acid]: in data set [1], the Body weight result was “not different” and the food intake result was “not different”. Moreover, the Half-life in data set [2] was over 4 h. Also, in data set [3], the Half-life is about 12 h.
